Data from ChEMBL document CHEMBL5036327, “Systematic Optimization of Potent and Orally Bioavailable Purine Scaffold as a Dual Inhibitor of Toll-Like Receptors 7 and 9” (J Med Chem, 2021).

Molecular target: T1, Toll-like receptor 9 (Homo sapiens, UniProt Q9NR96)
T1 sequence (Q9NR96 whole entry): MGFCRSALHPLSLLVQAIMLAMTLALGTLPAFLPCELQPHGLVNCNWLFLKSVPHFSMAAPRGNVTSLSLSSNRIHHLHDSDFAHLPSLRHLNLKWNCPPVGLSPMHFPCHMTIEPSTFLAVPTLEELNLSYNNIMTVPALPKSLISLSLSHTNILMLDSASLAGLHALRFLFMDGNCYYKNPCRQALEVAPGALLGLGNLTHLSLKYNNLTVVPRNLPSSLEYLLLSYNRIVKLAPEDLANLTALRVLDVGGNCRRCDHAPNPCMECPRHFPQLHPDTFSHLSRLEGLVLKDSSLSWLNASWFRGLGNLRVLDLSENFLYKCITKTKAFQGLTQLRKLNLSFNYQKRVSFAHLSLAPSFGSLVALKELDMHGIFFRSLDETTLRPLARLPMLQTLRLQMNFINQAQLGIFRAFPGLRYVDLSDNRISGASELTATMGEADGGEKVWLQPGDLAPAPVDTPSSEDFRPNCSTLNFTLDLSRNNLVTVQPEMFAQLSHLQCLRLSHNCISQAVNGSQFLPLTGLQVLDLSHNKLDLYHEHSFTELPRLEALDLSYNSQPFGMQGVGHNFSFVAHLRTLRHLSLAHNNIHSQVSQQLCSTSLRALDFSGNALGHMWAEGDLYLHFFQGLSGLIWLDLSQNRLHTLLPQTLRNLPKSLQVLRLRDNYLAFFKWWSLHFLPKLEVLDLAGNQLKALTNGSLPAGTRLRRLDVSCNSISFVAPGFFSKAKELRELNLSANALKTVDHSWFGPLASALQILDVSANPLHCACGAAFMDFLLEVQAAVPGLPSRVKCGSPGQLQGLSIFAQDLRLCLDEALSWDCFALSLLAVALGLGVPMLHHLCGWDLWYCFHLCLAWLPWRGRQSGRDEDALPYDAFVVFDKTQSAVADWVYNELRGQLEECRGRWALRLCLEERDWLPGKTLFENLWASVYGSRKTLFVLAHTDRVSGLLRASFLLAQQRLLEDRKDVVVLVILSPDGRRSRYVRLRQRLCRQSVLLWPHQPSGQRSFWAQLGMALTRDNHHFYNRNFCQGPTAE
Assay: Antagonist activity at human TLR9 expressed in […] cells assessed as inhibition of CpGB-induced NFkappaB activation measured after overnight incubation by SEAP-based spectrophotometry assay
Type: cell-based, HEK293

With CN(C)Cc1ccc(CNc2nc(N3CCN(C4CCCC4)CC3)c3ncn(CCCN4CCCC4)c3n2)cc1 the IC50 was 7 nM.
